For orientation: Cmax means the highest concentration seen after dosing.

Where two headings read alike, the source gives them in different places.

Results on 1 molecule are retold here after US11376249B2 (priority 2017, dated 2022).

The conditions of the data set: mice, plasma.

On to `O=C1CN2c3c(cccc3[C@@H]3CN(CCCOc4ccc(F)cc4)CC[C@@H]32)N1` [Example 3, (6bR,10aS)-8-(3-(4-fluorophenoxy)propyl)-6b,7,8,9,10,10a-hexahydro-1H-pyrido[3′,4′:4,5]pyrrolo[1,2,3-de]quinoxalin-2(3H)-one], for which the Cmax runs as follows: (PO 10 mg/kg) 279 ng/mL; (SC 0.1 mg/kg) 31.1 ng/mL.
